Measured values: patent publication US5002948A, “3-[4-[4-substituted-1-piperazinyl]-1-butyl]-1H-2,3-dihydroindoles” (H. Lundbeck A/S, priority 1988, dated 1991)

Protein sequences, listed by entry. Tags and fused reporters are not part of them.
UniProt P19327, whole entry: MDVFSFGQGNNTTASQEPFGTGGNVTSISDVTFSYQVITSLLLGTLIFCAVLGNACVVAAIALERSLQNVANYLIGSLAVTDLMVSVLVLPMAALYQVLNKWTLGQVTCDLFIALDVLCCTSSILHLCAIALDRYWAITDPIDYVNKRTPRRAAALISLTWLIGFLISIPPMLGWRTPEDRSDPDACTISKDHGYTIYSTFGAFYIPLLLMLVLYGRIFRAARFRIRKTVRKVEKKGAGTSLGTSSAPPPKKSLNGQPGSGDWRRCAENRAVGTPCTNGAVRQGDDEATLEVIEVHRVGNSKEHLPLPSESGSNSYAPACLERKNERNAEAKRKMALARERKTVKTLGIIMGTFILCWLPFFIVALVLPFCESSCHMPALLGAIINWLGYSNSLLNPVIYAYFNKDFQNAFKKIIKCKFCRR

Biological target: T1, serotonin 5-HT1A receptors (Rattus norvegicus, UniProt P19327)
T1 construct: membranes from rat brain minus cerebellum; from tissue; host or cells: brain minus cerebellum of male Wistar (Mol:Wist) rats, membranes
Test: Inhibition of 3H-8-OHDPAT binding to serotonin 5-HT1A receptors in rat brain in vitro
Settings: IC50 (3H 8-OH DPAT binding), 3H-8-OHDPAT 1 nM, rat brain membranes minus cerebellum, 37° C., 15 min
Protocol: INHIBITION OF ^3 H-8-OHDPAT BINDING TO SEROTONIN 5-HT1A RECEPTORS IN A RAT BRAIN IN VITRO
By this method the inhibition by drugs of the binding of ^3 H-8-OHDPAT (1 nM) to serotonin 5-HT1A receptors in membranes from rat brain minus cerebellum is determined in vitro.
Male Wistar (Mol:Wist) rats (125-250 g) are sacrificed and the brain is dissected and weighed. The brain tissue minus cerebellum is homogenized (Ultra Turrax, 20 sec) in 10 ml of ice cold 50 mM Tris buffer pH 8.0 (at 25° C.) containing 120 mM NaCl, 4 mM CaCl2 and 4 mM MgCl2. The homogenate is centrifuged at 20,000 g for 10 min at 4° C. The pellet is homogenized in 10 ml of buffer and incubated at 37° C. for 10 min. The homogenate is centrifuged as above and the pellet is homogenized in 100 vol (w/v) ice cold buffer containing 10 μ M of parglyine.
Incubation tubes kept on ice in triplicate receive 100 μl of drug solution in water (or water for total binding) and 1000 μ l of tissue suspension (final tissue content corresponds to 10 mg original tissue). The binding experiment is initiated by addition of 100 μ l of ^3 H-8-OHDPAT (final concentration 1 nM) and by placing the tubes in a 37° C. water bath. […] After shaking for 1 h and storage 2 h in the dark the content of radioactivity is determined by liquid scintillation counting. […]

Compound: CC1(C)CC(=O)N(CCCCN2CCN(c3ncccn3)CC2)C(=O)C1 [gepirone, reference compound]
- IC50: 310 nM
